Source: PubChem BioAssay
miR-21 reporter: miR-21 reporter, rising signal. 340,000 tested, under 10 active. Potency, µM (highest dose often 38.3 µM). HeLa miR-21 FLuc reporter, luciferase, 48 h. AID 2288; active = well fitted rising curve with a large enough effect; inconclusive = small, poorly fitted or top-dose-only effect; inactive = no such curve, though single readings can be large or run the other way;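 further: miR-21 action dims this reporter so a rising signal means less miR-21 action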
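Luminescence from a firefly luciferase reporter carrying a miR-21 binding site downstream, stably expressed under a CMV promoter in HeLa cells that make miR-21 endogenously, reports miRNA modulation after 48 h compound exposure up to approximately 40uM final.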
ClpP mod: qHTS Assay for Activators of ClpP | ATP-dependent Clp protease proteolytic subunit (Bacillus subtilis (strain 168)), P80244 | purified B. subtilis ClpP, FRET peptide cleavage, 20 min | Potency, µM (series often up to 57.5 µM) | 1.9% of 340,000 active; active = well fitted falling curve with a large enough effect; inconclusive = small, poorly fitted or top-dose-only effect; inactive = no such curve, though single readings can be large or run the other way; note: the source files actives as falling curves though it sought activators and does not explain the sign; nearly all actives have a fitted effect of over 65% in size
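Buffer: 100 mM Tris/HCl pH8, 100 mM KCl, 0.05% low protease BSA, 2.5% glycerol, 0.01% Tween-20. ClpP 10 microg/mL final; 20 min RT; delta FRET normalized to ADEP and DMSO controls.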
Apoferritin bind: candidate novel general anesthetic via apoferritin binding; P02791; apoferritin/1-aminoanthracene competitive binding, fluorescence; Potency, µM (highest dose often 77.5 µM), most hits filed as inhibitors; 0.074% of 350,000 active; note: nearly all actives have a fitted effect of over 20% in size
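Horse-spleen apoferritin (10 uM) in 50% saturated 1-aminoanthracene in PBS was incubated 10 min at room temperature with compound. Fluorescence (ex 380, em 535 nm) was normalized to free and bound 1-AMA, with concentration-response fitted by a four-parameter Hill equation.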
rTrxR1 inhibitor: blocks rat thioredoxin reductase 1 | O89049 | recombinant rTrxR1, NADPH fluorescence consumption, selenite substrate | Potency, µM (series often up to 114 µM), actives largely listed as inhibitors | 1% of 390,000 active; note: nearly all actives have a fitted effect of over 65% in size
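Rat TrxR1 (90 nM in the dispensed reagent) was pre-reduced with 400 uM NADPH for 5 min at room temperature, then incubated with compound for 15 min. After 400 uM selenite was added, NADPH fluorescence (Ex 340/Em 450 nm) was followed for 8 min.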
TrxR1 substrate: substrates of rat thioredoxin reductase 1. AID 588456. Potency, µM (series often up to 114 µM). 0.01% of 390,000 active. purified TrxR1 substrate turnover, NADPH consumption readout; note: nearly all actives have a fitted effect of over 50% in size
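Rat TrxR1, dispensed at 90 nM, was prereduced with 400 uM NADPH (final) for 5 min at ~22 deg C, then incubated with compound 15 min before 400 uM selenite. A first-read NADPH fluorescence drop versus no-compound background flagged substrates.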
Hits are given with their value; 0 = inactive; ? = inconclusive; - = not tested or not shown. This is a sample that favours compounds with a hit; in the whole collection about 2.5% have one here. Unless noted, calls come from the whole dose curve; as a rule, active = well fitted curve in the direction sought with a large enough effect; inconclusive = small, poorly fitted or top-dose-only effect, or another doubt; inactive = no such curve, though single readings can be large; an effect the other way counts as inactive or inconclusive.

Sequences of proteins named here, by UniProt entry; tags and fusion partners are left off.
ATP-dependent Clp protease proteolytic subunit (Bacillus subtilis (strain 168)), P80244, UniProt P80244, whole entry, looked up: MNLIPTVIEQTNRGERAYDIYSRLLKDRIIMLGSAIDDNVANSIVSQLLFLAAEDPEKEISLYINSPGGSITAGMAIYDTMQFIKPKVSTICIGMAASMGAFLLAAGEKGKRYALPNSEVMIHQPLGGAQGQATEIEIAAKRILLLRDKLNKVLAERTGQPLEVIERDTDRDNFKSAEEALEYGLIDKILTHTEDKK

SMILES	miR-21 reporter	ClpP mod	Apoferritin bind	rTrxR1 inhibitor	TrxR1 substrate
O=C1CC(C(=O)Nc2ccccc2)C2(CCCCC2)O1 (configuration not stated)	0	0	0	0	0
O=C1CC(C(=O)Nc2ccc(Cl)cc2[N+](=O)[O-])C2(CCCCC2)O1 (configuration not stated)	0	28µM	0	0	0
Cc1ccc(NC(=O)Nc2nnc(SCC(=O)N(C(C)C)C(C)C)s2)cc1	?	0	?	0	0
Cc1cc(C)cc(Oc2coc3c(CN(C)C)c(O)ccc3c2=O)c1	0	0	0	0	0
COc1ccc(Oc2c(C)oc3c(CN(C)C)c(O)ccc3c2=O)cc1	0	28µM	0	0	0
COc1ccc(Oc2coc3c(CN(C)C)c(O)ccc3c2=O)cc1	0	28µM	0	0	0
Cc1oc2c(CN(C)C)c(O)ccc2c(=O)c1-c1cscn1	0	25µM	0	0	0
CCc1cc2c(=O)c(-c3cscn3)coc2c(CN(C)C)c1O	0	16µM	0	0	0
COc1cccc(Oc2c(C)oc3c(CN4CCCCC4)c(O)ccc3c2=O)c1	0	0	0	45µM	0
COc1ccccc1Oc1c(C)oc2c(CN3CCN(C)CC3)c(O)ccc2c1=O	0	-	0	-	-
Cc1cc2c(nn1)CCC/C2=N\O	0	18µM	0	0	0
CCCN1CCC(=NNc2ccc(S(N)(=O)=O)cc2[N+](=O)[O-])CC1	0	14µM	0	0	0
O=c1c2ccccc2n(Cc2ccccc2Cl)c(=O)n1CCc1ccccc1	0	0	0	0	0
CCc1ccc(CNc2ccc3c(c2)ncn3C)cc1	0	28µM	0	0	0
Cc1ccc(-n2cnc3cc(NCc4cccs4)ccc32)cc1	0	22µM	0	0	0
Cc1ccc(CNc2ccc3c(c2)ncn3C)cc1	0	25µM	0	0	0
c1ccc(-n2cnc3cc(NCc4cccs4)ccc32)cc1	0	?	0	0	0
CCc1cc2c(cc3c(=O)n(CC(=O)NC(C)C)nc(CC)n32)s1	0	0	0	0	0
CCN(Cc1nc(-c2ccc(OC)c(OC)c2)no1)S(=O)(=O)c1ccc(OC)cc1	0	0	0	0	0
Cc1ccc(-c2nc(C)c(CCNC(=O)C(=O)Nc3ccc4c(c3)OCCO4)s2)cc1	0	0	0	0	0
Nc1ccc(-c2nc3ccc(N)cc3o2)cc1	0	0	0	79µM	0
Nc1ccc(-c2nc3cc(N)ccc3o2)cc1	0	0	0	0	0
Cc1nn(C(C)C(=O)NCCCN2CCCCCC2)c(=O)c2c1sc1ccccc12 (configuration not stated)	0	0	0	50µM	0
Cc1nn(C(C)C(=O)NCCCN2CCCCC2C)c(=O)c2c1sc1ccccc12 (configuration not stated)	0	0	0	0	0
COc1ccc(NC(=O)c2sc3nc4c(cc3c2N)CN(C(C)C)CC4)c(OC)c1	0	0	0	0	0
SMILES	miR-21 reporter	ClpP mod	Apoferritin bind	rTrxR1 inhibitor	TrxR1 substrate
O=C(Nc1nc2ccccc2s1)c1cc(-c2ccco2)nc2ccccc12	0	18µM	0	?	0
O=C(Nc1nccs1)c1cc(-c2ccco2)nc2ccccc12	0	0	0	0	0
Cc1ccc2nc(NC(=O)c3cc(-c4ccco4)nc4ccccc34)sc2c1	0	18µM	0	0	0
CC(=O)Nc1ccc(S(=O)(=O)Nc2cccc(-c3ccc(N4CCC(C)CC4)nn3)c2)cc1	?	0	0	0	0
CCOC(=O)Nc1ccc(=O)n(Cc2c(Cl)cccc2Cl)c1	0	28µM	0	0	0
CCOC(=O)CN1C(=O)C(=O)N(Cc2c(Cl)cccc2Cl)C1=O	0	-	0	0	0
COc1ccccc1OCC(=O)N(Cc1ccco1)Cc1ccccc1F	0	0	0	0	0
CCN(CC)c1ccc(C=C(c2nnnn2-c2ccccc2)c2nnnn2-c2ccccc2)cc1	0	28µM	0	0	0
Cc1ccc(CNC(=O)c2ccc3c(c2)NC(=O)C(CS(=O)(=O)Cc2ccc(F)cc2)N3)cc1 (configuration not stated)	0	0	0	0	0
Cc1nc(N2CCOCC2)c2cc(-c3ccccc3)sc2n1	0	32µM	0	0	0
c1ccc(-c2cc3c(N4CCCC4)ncnc3s2)cc1	0	-	0	0	0
Cc1nc(N2CCN(Cc3ccc4c(c3)OCO4)CC2)c2cc(-c3ccccc3)sc2n1	0	-	0	0	0
c1ccc(-c2cc3c(N4CCOCC4)ncnc3s2)cc1	0	28µM	0	0	0
COc1cc2c(NC3CCN(C)CC3)nc(N3CCCN(C)CC3)nc2cc1OCc1ccccc1	-	0	-	0	0
CCCc1cc(=O)oc2cc(OC(=O)CN3C(=O)NC4(CCCC4)C3=O)ccc12	-	0	-	79µM	0
CCOC(=O)/C=C/c1ccc2c(c1)S(=O)(=O)N(C1CCCC1)[C@H]2CC(=O)OCC	-	0	-	0	0
O=C(N/C(=C\c1ccco1)C(=O)N1CCCC1CO)c1ccccc1 (configuration not stated)	0	-	0	40µM	0
O=C(COc1coc(CN2CCN(c3ccccc3F)CC2)cc1=O)Nc1ccccc1	-	-	-	0	0
COc1ccccc1N1CCN(Cc2cc(=O)c(OCC(=O)Nc3ccccc3)co2)CC1	-	25µM	-	0	0
O=C(Cn1nc(Cc2cccnc2)c2ccccc2c1=O)Nc1ccc(F)c(Cl)c1	0	0	0	0	0
O=C(CCS(=O)(=O)c1ccc(Br)cc1)Nc1ccccn1	0	0	0	45µM	0
O=C(CCS(=O)(=O)c1ccc(Br)cc1)Nc1ccccc1Cl	0	0	0	0	0
CC(CNC(=O)c1ccc2c(c1)nc1n2CCCCC1)c1ccccc1 (configuration not stated)	0	0	0	0	0
O=C1CSc2ccc(S(=O)(=O)CCC(=O)NC3CCCCC3)cc2N1	0	0	0	14µM	0
CC1CCC(NC(=O)CCS(=O)(=O)c2ccc3c(c2)NC(=O)CS3)CC1 (configuration not stated)	0	0	0	0	0
SMILES	miR-21 reporter	ClpP mod	Apoferritin bind	rTrxR1 inhibitor	TrxR1 substrate
CCOC(=O)c1ccc(S(=O)(=O)NNC(=O)c2ccc3c(c2)nc(C)n3CC)cc1	0	0	0	0	0
CCn1c(C)nc2cc(C(=O)NNS(=O)(=O)c3ccccc3F)ccc21	0	3.2µM	0	?	0
COc1cccc(CNCCSc2nnnn2C)c1OCc1ccccc1F	0	0	0	0	0
Nc1cc(OCC(F)(F)F)cc([N+](=O)[O-])c1	0	0	0	0	0
Nc1cc(N)c(OCC(F)(F)F)cc1OCC(F)(F)F	0	0	?	0.32µM	0
O=c1oc2c3c4c(cc2c2c1CCC2)OCCN4CCC3	0	18µM	0	?	0
CN1c2ccccc2C(=O)N2CCc3c([nH]c4ccccc34)C21 (configuration not stated)	-	-	0	0	0
